Several values for one entry are separate records, joined by “and”; a condition that tells them apart may be missing. Identical values can stand only once. The list shows a part of the results, in another mix than the full data. Results filed as inconclusive are left out. Activity calls are given as the source filed them. Unless noted, calls come from the whole dose curve; as a rule, active = well fitted curve in the direction sought with a large enough effect in the repeat runs; inconclusive = weak or mixed curves; inactive = no such curve, though single readings can be large; an effect the other way counts as inactive or inconclusive.
How the values were obtained:
[1] = qHTS RealTime-Glo MT Cell Viability Assay in HEK293 cells - 16 hour (AID 1224872); note: top concentration of the series differs between compounds; nearly all actives have a fitted effect of over 50% in size
Method in brief: (§1)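 Cells + reagent dispensed (600 cells/well, HEK293) → 5 h at 37 C/5% CO2 → 23 nL compound in DMSO pinned → 40 h at 37 C → luminescence read at 0, 8, 16, 24, 32, 40 h.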

Sequences of proteins named here, by UniProt entry; tags and fusion partners are left off. A change or cut given only in a name is not applied to a line headed by its entry.
UniProt P03372, whole entry, looked up: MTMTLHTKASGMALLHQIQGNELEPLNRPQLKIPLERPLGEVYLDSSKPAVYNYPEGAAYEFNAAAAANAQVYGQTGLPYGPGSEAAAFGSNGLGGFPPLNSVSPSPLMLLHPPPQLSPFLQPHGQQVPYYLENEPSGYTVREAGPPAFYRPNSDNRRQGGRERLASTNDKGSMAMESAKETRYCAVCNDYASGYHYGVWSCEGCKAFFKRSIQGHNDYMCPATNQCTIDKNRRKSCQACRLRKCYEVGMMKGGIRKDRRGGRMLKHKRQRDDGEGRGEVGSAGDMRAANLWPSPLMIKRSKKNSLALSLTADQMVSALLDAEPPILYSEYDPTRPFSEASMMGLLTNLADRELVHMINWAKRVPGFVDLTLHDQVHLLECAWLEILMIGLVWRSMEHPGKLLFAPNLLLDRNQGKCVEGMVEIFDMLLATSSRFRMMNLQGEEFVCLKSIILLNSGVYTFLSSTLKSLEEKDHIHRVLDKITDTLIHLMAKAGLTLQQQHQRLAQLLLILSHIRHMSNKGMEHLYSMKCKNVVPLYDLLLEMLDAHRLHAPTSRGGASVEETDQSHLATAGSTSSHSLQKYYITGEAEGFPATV
UniProt Q92731, whole entry, looked up: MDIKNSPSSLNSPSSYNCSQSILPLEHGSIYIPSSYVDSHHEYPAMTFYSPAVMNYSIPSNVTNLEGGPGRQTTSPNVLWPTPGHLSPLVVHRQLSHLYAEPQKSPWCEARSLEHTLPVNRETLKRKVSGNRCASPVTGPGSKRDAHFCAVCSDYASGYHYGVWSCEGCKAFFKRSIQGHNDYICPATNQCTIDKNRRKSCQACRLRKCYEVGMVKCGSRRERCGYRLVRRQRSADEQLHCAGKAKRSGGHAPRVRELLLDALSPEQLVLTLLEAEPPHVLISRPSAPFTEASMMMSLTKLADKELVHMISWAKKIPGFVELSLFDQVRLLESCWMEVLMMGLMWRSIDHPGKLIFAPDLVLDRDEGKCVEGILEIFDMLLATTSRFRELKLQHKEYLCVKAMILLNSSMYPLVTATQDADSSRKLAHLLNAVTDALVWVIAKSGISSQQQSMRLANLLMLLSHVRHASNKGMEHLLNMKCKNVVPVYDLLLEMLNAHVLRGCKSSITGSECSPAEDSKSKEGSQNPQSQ
UniProt P10275: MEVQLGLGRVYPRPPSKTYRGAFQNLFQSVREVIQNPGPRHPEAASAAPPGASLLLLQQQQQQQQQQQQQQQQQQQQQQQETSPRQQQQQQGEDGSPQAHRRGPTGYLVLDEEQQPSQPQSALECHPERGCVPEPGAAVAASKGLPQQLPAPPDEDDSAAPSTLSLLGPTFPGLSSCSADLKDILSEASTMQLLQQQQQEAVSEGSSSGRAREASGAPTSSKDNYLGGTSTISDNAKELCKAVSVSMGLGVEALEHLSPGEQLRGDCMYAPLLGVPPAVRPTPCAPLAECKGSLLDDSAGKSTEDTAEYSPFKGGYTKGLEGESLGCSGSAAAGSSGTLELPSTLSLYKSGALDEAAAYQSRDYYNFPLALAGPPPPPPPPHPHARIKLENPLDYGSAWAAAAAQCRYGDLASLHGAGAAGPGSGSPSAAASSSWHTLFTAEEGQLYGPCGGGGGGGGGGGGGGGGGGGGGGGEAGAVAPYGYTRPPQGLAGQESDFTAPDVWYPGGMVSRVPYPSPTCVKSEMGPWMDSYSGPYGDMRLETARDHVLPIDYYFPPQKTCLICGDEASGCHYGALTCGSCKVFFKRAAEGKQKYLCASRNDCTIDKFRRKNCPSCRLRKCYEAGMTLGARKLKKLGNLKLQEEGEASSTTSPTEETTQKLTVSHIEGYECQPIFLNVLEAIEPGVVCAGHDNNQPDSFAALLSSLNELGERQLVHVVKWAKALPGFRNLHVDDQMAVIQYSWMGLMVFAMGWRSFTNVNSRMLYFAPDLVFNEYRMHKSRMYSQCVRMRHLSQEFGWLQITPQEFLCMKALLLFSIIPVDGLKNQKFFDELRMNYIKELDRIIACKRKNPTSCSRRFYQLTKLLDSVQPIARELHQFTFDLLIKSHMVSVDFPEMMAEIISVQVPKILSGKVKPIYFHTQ

[2] = qHTS RealTime-Glo MT Cell Viability Assay in HepG2 cells - 8 hour (AID 1224873); note: nearly all actives have a fitted effect of over 55% in size
Method in brief: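 HepG2 cells mixed with RealTime-Glo MT reagents (NanoLuc plus cell-permeant prosubstrate) were seeded at 600 cells/well, incubated 5 h at 37 C/5% CO2, then pinned with compounds in DMSO; nonlytic luminescence tracked viability during 40 h treatment.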

[3] = qHTS RealTime-Glo MT Cell Viability Assay in HEK293 cells - 40 hour (AID 1224874); settings: RealTime-Glo luminescence; max response: hits give low values; note: nearly all actives have a fitted effect of over 50% in size; note: potency is the fitted concentration of half-maximal effect
Method in brief: (§2)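 Cells were seeded together with NanoLuc luciferase and a prosubstrate that viable cells reduce to a luciferase substrate. After a 5 h incubation at 37 C/5% CO2, compounds were added and luminescence was measured repeatedly during 40 h of treatment.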

[4] = A CellTox Green Cytotoxicity Assay to monitor cytotoxicity in HepG2 cells - 16 hour (AID 1224876); note: nearly all actives have a fitted effect of over 45% in size
Method in brief: (§3)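 Read-out is fluorescence of a cyanine dye excluded from live cells that stains DNA of dead HepG2 cells, with signal proportional to cytotoxicity. Plates were read at 0, 8, 16, 24, 32 and 40 h after compound addition.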

[5] = A CellTox Green Cytotoxicity Assay to monitor cytotoxicity in HepG2 cells - 24 hour (AID 1224878); note: nearly all actives have a fitted effect of over 45% in size
Method in brief: as §3

[6] = A CellTox Green Cytotoxicity Assay to monitor cytotoxicity in HepG2 cells - 40 hour (AID 1224879); note: nearly all actives have a fitted effect of over 40% in size
Method in brief: as §3

[7] = qHTS RealTime-Glo MT Cell Viability Assay in HEK293 cells - 0 hour (AID 1224880); settings: RealTime-Glo luminescence; at 76.8 µM (top of the series) unless noted; note: top concentration of the series differs between compounds; nearly all actives have a fitted effect of over 45% in size
Method in brief: as §2

[8] = qHTS RealTime-Glo MT Cell Viability Assay in HEK293 cells - 24 hour (AID 1224886); note: top concentration of the series differs between compounds; nearly all actives have a fitted effect of over 50% in size
Method in brief: as §1

[9] = qHTS RealTime-Glo MT Cell Viability Assay in HEK293 cells - 8 hour (AID 1224887); note: top concentration of the series differs between compounds; nearly all actives have a fitted effect of over 50% in size
Method in brief: as §2

[10] = qHTS RealTime-Glo MT Cell Viability Assay in HepG2 cells - 0 hour (AID 1224889); settings: RealTime-Glo luminescence; at 76.8 µM (top of the series) unless noted; note: nearly all actives have a fitted effect of over 50% in size
Method in brief: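 Real-time, nonlytic viability: 600 HepG2 cells/well mixed with NanoLuc enzyme plus prosubstrate; 5 h settle, compound (DMSO) added by pintool; luminescence monitored over 40 h at 37 C.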

[11] = qHTS assay to identify small molecule antagonists of the estrogen receptor alpha (ER-alpha) signaling pathway using the BG1 cell line in the presence of 0.1 nM 17-beta-estradiol - cell viability counter screen (AID 1259241); note: nearly all actives have a fitted effect of over 40% in size
Method in brief: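 Cytotoxicity counter-screen: live-cell protease activity measured by fluorescence (30 min reagent step) in the same wells. Cells were VM7Luc4E2 with endogenous ER-alpha and ERE-driven luciferase, treated 22 hr at 37C alongside 0.1 nM 17beta-estradiol final.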

[12] = qHTS assay to identify small molecule antagonists of the androgen receptor (AR) signaling pathway using the MDA cell line in the presence of 0.5 nM R1881 - cell viability counter screen (AID 1259242); note: nearly all actives have a fitted effect of over 45% in size
Method in brief: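 Counter screen for cytotoxicity run in the same wells as the AR antagonist reporter screen: MDA-kb2 cells were treated 16 hr with test compounds and 0.5 nM R1881, then live-cell protease activity was measured by fluorescence.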

[13] = target: Estrogen receptor (Homo sapiens) (UniProt P03372); test: qHTS assay to identify small molecule antagonists of the estrogen receptor alpha (ER-alpha) signaling pathway using the BG1 cell line in the presence of 0.1 nM 17-beta-estradiol (AID 1259244); settings: VM7Luc4E2 (BG1) ERE-luciferase, antagonist mode, 0.1 nM E2, 22 h; at 92.4 µM (top of the series) unless noted; note: nearly all actives have a fitted effect of over 50% in size
[14] = qHTS assay to identify small molecule HDAC inhibitors (AID 1259364); settings: HCT-116 HDAC-Glo I/II luminescence, 2 h; at 92.4 µM (top of the series) unless noted
Method in brief: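 Luminescence from a cell-permeant luminogenic class I/II HDAC substrate reports endogenous deacetylase activity in intact HCT-116 cells treated with compounds for 2 h.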

[15] = qHTS assay to identify small molecule HDAC inhibitors - cell viability counter screen (AID 1259365); settings: HCT-116 viability, CellTiter-Glo ATP luminescence, 2 h; at 92.4 µM (top of the series) unless noted; note: nearly all actives have a fitted effect of over 50% in size
Method in brief: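 CellTiter-Glo luminescence (30 min, room temperature) reported viability after a 2 h compound exposure at 37 C. Cells: wild-type HCT-116, 1,500 per well, seeded the night before.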

[16] = qHTS assay to identify small molecule agonists of the sonic hedgehog signaling (Shh) pathway - cell viability counter screen (AID 1259366); note: nearly all actives have a fitted effect of over 50% in size
Method in brief: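 Cytotoxicity counter screen: CellTiter-Fluor reagent added after 23 h compound exposure, then 1 h at 37C and fluorescence read. Cells were 3T3 Gli1-Luc, seeded 2,000 per well and dosed 4 h post-plating.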

[17] = qHTS assay to identify small molecule agonists of the sonic hedgehog signaling (Shh) pathway (AID 1259368; calls by dose curve;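 note: NIH/3T3-derived 3T3Gli1-Luc cells carrying a stable Gli1-driven firefly luciferase reporter; nearly all actives have a fitted effect of over 15% in size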); settings: NIH/3T3 Gli1-Luc reporter, luciferase, 24 h, hits give high values; at 92.4 µM (top of the series) unless noted
Method in brief: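 3T3Gli1-Luc (NIH/3T3 clone, stable Gli1-Luc); 4 hr pre-incubation, then cpd in DMSO 24 hr, 37 C/5% CO2; luciferase reagent 30 min RT; luminescence.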

[18] = qHTS assay to identify small molecule antagonists of the sonic hedgehog signaling (Shh) pathway (AID 1259369; calls by dose curve; note: nearly all actives have a fitted effect of over 45% in size)
Method in brief: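 3T3Gli1-Luc, conditioned-medium-stimulated, 24hr cpd, 37C/5% CO2; Gli1-driven firefly Luc luminescence after 30min RT with luciferase reagent. Cells plated 4hr before cpd.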

[19] = target: Estrogen receptor beta (Homo sapiens) (UniProt Q92731); test: qHTS assay to identify small molecule agonists of the estrogen receptor beta (ER-beta) signaling pathway (AID 1259377; active = well fitted activation curve with a large enough effect in the signal ratio in the repeat runs, not every such curve was filed as active; the % refers to the signal ratio); settings: ER-beta-UAS-bla HEK293T, beta-lactamase FRET ratio, 16 h; at 92.4 µM (top of the series) unless noted
[20] = target: Androgen receptor (Homo sapiens) (UniProt P10275); test: qHTS assay to identify small molecule antagonists of the androgen receptor (AR) signaling pathway using the MDA cell line in the presence of 0.5 nM R1881 (AID 1259243); note: nearly all actives have a fitted effect of over 50% in size
% is set by controls: 0 for no effect and ±100 for the full control effect.

CCNC(C)Cc1ccc2c(c1)OCO2 (stereo not drawn)
inactive: Potency [1] | Potency [2] | max response [3] -12.9% | Potency [4] | Potency [5] | Potency [6] | activity change, negative = cytotoxicity [7] -2.42% | Potency [8] | Potency [9] | activity change, negative = cytotoxicity [10] -0.557% | Potency [11] | Potency [12] | activity change, negative = inhibition [13] 4.52% | activity change, negative = inhibition [14] 0.466% | activity change, negative = cytotoxicity [15] -3.66% | Potency [16] | activity change [17] 0.411% | Potency [18] | activation [19] -1.62%

CN(C(=O)Cc1ccccc1)[C@H]1CC[C@@]2(CCCO2)C[C@@H]1N1CCCC1
inactive: Potency [1] | Potency [2] | max response [3] 3.41% | Potency [4] | Potency [5] | Potency [6] | activity change, negative = cytotoxicity [7] -0.694% [at 35.3 µM] | Potency [8] | Potency [9] | activity change, negative = cytotoxicity [10] 3.96% [at 35.3 µM] | Potency [11] | Potency [12] | Potency [20] | activity change, negative = inhibition [13] 2.34% [at 42.5 µM] | activity change, negative = inhibition [14] 16.4% [at 42.5 µM] | activity change, negative = cytotoxicity [15] -0.0962% [at 42.5 µM] | activity change [17] -0.423% [at 42.5 µM] | Potency [18] | activation [19] 8.95% [at 42.5 µM]

CCCCO[P+](=O)OCCCC
inactive: Potency [1] | Potency [2] | max response [3] 2.53% and 8.49% | Potency [4] | Potency [5] | Potency [6] | activity change, negative = cytotoxicity [7] -4.15% and 1.07% | Potency [8] | Potency [9] | activity change, negative = cytotoxicity [10] -0.906% and -1.89% | Potency [11] | Potency [12] | Potency [20] | activity change, negative = inhibition [13] -0.396% and 3.65% | activity change, negative = inhibition [14] 3.63% and 1.55% | activity change, negative = cytotoxicity [15] 1.87% and -2.51% | Potency [16] | activity change [17] -0.24% and -1.07%

CN(C(=O)Cc1cccc2occc12)[C@H]1CC[C@@]2(CCCO2)C[C@@H]1N1CCCC1
inactive: Potency [1] | Potency [2] | max response [3] 11.7% | Potency [4] | Potency [5] | Potency [6] | activity change, negative = cytotoxicity [7] 2.53% | Potency [8] | Potency [9] | activity change, negative = cytotoxicity [10] 2.51% | Potency [11] | Potency [12] | activity change, negative = inhibition [13] -10.7% | activity change, negative = inhibition [14] -2.16% | activity change, negative = cytotoxicity [15] -0.675% | Potency [16] | activity change [17] 0.153% | Potency [18] | activation [19] 1.54%

O=P(Cl)(Cl)c1ccccc1
inactive: Potency [1] | Potency [2] | max response [3] 1.05% | Potency [4] | Potency [5] | Potency [6] | activity change, negative = cytotoxicity [7] 0.914% | Potency [8] | Potency [9] | activity change, negative = cytotoxicity [10] -3% | Potency [11] | Potency [12] | activity change, negative = inhibition [13] 6.67% | activity change, negative = inhibition [14] -5.19% | activity change, negative = cytotoxicity [15] -0.461% | Potency [16] | activity change [17] 0.306% | Potency [18]

CN(N=O)C(=N)N[N+](=O)[O-]
inactive: Potency [1] | Potency [2] | Potency [4] | Potency [5] | Potency [6] | activity change, negative = cytotoxicity [7] -0.742% | Potency [9] | activity change, negative = cytotoxicity [10] 1.91% | Potency [11] | Potency [12] | activity change, negative = inhibition [14] -8.65% | activity change, negative = cytotoxicity [15] 1.45% | Potency [16] | activity change [17] 3.07% | activation [19] -0.825%
active: Potency [3] 34.4 µM

CCCCC(CC)CO[P+](=O)OCC(CC)CCCC (stereo not drawn)
inactive: Potency [1] | Potency [2] | max response [3] -5.72% | Potency [4] | Potency [5] | Potency [6] | activity change, negative = cytotoxicity [7] 3.59% | Potency [8] | Potency [9] | activity change, negative = cytotoxicity [10] -0.117% | Potency [11] | Potency [12] | activity change, negative = inhibition [13] 8.12% | activity change, negative = inhibition [14] 8.09% | activity change, negative = cytotoxicity [15] 0.712% | Potency [16] | activity change [17] -1.64% | Potency [18] | activation [19] 0.28%

Source: PubChem BioAssay (Tox21)
